Data on 1 compound can be found in patent US20140107219A1, “LOCAL ANAESTHETIC” (VITA (EUROPE) LIMITED, priority 2011, published 2014).

Chains of the proteins cited; added tags and fusions are not shown.
UniProt Q99250, whole entry: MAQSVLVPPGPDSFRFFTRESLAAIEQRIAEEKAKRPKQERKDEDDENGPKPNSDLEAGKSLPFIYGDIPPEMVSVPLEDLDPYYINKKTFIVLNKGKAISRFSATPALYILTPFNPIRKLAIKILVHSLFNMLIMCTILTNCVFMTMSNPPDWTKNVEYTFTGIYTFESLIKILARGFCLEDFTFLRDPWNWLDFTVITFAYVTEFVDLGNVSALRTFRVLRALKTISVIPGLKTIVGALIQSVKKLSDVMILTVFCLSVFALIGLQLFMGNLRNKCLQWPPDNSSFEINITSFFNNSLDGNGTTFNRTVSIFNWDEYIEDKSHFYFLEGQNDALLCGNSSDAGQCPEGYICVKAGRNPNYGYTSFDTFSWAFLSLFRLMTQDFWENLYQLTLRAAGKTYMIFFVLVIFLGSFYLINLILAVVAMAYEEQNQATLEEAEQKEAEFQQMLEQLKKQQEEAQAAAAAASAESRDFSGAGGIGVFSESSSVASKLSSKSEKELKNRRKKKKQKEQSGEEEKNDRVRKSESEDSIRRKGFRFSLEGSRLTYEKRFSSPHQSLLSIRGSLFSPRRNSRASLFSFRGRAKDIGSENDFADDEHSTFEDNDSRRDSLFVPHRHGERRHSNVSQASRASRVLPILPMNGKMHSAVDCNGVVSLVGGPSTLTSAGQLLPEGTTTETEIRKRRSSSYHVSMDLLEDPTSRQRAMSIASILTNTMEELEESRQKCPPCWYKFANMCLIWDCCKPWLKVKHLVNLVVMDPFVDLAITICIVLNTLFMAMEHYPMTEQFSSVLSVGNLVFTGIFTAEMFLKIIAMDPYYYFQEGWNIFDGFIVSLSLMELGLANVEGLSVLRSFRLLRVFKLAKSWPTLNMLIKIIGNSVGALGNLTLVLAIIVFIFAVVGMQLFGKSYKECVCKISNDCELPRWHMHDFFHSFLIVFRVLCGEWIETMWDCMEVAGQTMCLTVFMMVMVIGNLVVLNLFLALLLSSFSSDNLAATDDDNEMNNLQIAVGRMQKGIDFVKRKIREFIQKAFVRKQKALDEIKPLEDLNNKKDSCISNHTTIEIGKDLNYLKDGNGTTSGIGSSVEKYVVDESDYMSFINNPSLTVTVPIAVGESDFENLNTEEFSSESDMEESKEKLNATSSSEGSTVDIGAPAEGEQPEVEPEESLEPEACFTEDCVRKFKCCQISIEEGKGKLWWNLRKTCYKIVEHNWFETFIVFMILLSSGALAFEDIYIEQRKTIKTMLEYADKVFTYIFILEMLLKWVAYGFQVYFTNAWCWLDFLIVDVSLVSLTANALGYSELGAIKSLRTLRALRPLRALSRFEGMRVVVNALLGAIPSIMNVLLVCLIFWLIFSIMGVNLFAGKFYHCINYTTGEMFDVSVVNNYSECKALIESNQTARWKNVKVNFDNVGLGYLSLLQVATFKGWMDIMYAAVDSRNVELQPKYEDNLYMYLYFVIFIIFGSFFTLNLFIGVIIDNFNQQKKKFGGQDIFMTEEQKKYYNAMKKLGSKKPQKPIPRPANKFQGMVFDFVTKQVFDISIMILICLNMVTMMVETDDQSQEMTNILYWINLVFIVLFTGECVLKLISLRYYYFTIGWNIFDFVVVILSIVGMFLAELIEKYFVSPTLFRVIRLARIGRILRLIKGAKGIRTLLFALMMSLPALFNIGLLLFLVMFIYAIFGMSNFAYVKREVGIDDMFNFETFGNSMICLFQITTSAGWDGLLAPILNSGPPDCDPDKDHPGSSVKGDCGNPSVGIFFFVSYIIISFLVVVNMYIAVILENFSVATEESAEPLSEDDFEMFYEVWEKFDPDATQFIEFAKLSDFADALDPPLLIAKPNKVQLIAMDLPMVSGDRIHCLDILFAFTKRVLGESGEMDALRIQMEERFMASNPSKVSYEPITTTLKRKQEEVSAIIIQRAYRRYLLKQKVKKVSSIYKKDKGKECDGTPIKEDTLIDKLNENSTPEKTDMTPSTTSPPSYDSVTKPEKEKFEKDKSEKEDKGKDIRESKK

In the assay the target is T1, hNav1.2 sodium channels (SCN2A gene, expressed in CHO cells) (Homo sapiens, UniProt Q99250).
T1 construct: expressed in transfected cells; host or cells: CHO cells
The assay can be described thus: Automated patch clamp (PatchXpress 7000A), cloned hNav1.2 in CHO cells, tonic and phasic. In kind it is cell-based. Here is the method:
In this example, the in vitro effects of 2-heptanone on the following ion channels were evaluated at room temperature using the PatchXpress 7000A (Molecular Devices), an automatic parallel patch clamp system:
1. Cloned hNav1.2 sodium channels (SCN2A gene, expressed in CHO cells). 2. Cloned hNav1.6 sodium channels (SCN8A gene, expressed in CHO cells).
The effects of 2-heptanone were evaluated at 0.73, 1.46, 2.19, and 2.92 mg/ml with each concentration tested in two cells (n=2). The duration of exposure to each concentration of 2-heptanone was 5 minutes. Tables 2 to 5 show the individual results from each concentration followed by individual concentration-response curves. The positive controls (Table 6) confirm the sensitivity of the test systems to inhibition.
. Br. J. Pharmacol. 164, 719-730). […]
(In patch-clamp work, channel activity is measured electrically.)

Read-outs that look alike come from different tables or passages of the source.

In the case of `CCN(CC)CC(=O)Nc1c(C)cccc1C` [lidocaine, 2-(diethylamino)-N-(2,6-dimethylphenyl)-acetamide, reference compound], the “hNav1.2 IC50, phasic” value (Example 18, mean ± SEM) is 100 ± 10 µg/mL. Moreover, the IC50 (commonly the point on the concentration scale where inhibition reaches its midpoint) runs as follows: (Example 18, mean ± SEM, read-out: hNav1.2 IC50, tonic (converted)) 1150 µM; (FIG. 42, read-out: Nav1.2 IC50, phasic) 400 µM; (FIG. 42, read-out: Nav1.2 IC50, tonic) 990 µM.
